Data taken from PMC11823594, “Durlobactam in combination with β-lactams to combat Mycobacterium abscessus” (Antimicrobial Agents and Chemotherapy, 2024).

Amino acid sequences for entries named in this document (tags omitted).
UniProt B1MP31, entry or part of it: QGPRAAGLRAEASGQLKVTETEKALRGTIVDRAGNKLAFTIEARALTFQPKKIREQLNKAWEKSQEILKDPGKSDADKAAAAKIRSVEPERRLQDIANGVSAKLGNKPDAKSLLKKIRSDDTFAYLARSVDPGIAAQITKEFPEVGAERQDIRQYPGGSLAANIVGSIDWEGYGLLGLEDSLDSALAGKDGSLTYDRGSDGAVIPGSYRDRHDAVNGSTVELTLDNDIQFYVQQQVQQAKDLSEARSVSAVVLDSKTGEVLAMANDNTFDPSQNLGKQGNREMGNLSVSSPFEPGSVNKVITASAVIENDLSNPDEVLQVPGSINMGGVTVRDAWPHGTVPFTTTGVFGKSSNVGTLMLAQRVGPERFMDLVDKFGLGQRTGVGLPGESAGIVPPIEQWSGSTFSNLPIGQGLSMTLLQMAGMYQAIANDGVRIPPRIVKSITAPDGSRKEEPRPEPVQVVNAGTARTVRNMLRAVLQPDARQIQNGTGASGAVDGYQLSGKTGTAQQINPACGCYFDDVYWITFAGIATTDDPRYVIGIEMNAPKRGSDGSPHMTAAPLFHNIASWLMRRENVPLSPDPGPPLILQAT
UniProt B1MM58, entry or part of it: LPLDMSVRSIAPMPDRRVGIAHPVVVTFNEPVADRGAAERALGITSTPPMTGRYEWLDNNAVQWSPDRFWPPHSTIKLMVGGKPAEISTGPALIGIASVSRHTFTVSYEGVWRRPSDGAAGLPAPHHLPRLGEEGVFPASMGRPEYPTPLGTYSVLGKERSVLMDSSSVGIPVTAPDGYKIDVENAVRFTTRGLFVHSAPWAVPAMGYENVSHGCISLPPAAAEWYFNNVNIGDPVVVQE
UniProt B1MDJ1, entry or part of it: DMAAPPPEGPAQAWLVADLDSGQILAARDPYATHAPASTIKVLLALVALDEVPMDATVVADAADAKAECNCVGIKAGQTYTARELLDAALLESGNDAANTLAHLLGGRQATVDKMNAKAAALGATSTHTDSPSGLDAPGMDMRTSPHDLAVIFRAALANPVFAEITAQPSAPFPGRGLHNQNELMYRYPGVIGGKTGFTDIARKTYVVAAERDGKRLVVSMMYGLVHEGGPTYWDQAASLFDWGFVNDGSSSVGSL
UniProt B1MDC3, entry or part of it: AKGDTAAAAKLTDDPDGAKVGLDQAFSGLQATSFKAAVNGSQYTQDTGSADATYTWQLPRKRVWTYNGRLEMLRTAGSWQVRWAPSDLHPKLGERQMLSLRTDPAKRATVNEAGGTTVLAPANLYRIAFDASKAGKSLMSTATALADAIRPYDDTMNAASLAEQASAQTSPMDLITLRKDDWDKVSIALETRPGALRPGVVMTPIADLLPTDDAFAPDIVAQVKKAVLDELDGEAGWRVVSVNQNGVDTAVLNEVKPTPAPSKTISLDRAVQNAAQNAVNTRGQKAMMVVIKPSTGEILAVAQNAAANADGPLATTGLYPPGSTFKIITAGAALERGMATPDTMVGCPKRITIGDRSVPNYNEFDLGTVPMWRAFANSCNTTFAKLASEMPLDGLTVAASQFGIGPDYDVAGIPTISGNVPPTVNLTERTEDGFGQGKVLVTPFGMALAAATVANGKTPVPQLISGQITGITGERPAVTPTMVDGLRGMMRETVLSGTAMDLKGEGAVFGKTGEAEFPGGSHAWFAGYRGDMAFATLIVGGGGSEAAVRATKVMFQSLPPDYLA

Key:
[1] = target: PBP B (Mycobacterium abscessus, UniProt B1MP31); experiment: Steady-state kinetics with nitrocefin (Ki,app); format: biochemical; conditions: in parentheses in Table 3;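 also: Parenthesised value is the fCss,avg to Ki,app ratio where above 1 means target likely hit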
[2] = target: LDT5 (Mycobacterium abscessus, UniProt B1MM58); experiment: Steady-state kinetics with nitrocefin (Ki,app); format: biochemical; conditions: in parentheses in Table 3
[3] = target: T1, DDC (Mycobacteroides abscessus, UniProt B1MDJ1); experiment: Mass spectrometry of covalent adduct formation; format: binding; conditions: protein:drug 1:20, 2 h; mass accuracy ±5 Da; (−) = no change
[4] = target: T1, DDC; experiment: Steady-state kinetics with nitrocefin (Ki,app); format: biochemical; conditions: in parentheses in Table 3;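 also: Parenthesised value is the fCss,avg to Ki,app ratio where above 1 means target likely hit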
[5] = target: T2, PBP-lipo (Mycobacteroides abscessus, UniProt B1MDC3); experiment: Steady-state kinetics with nitrocefin (Ki,app); format: biochemical; conditions: in parentheses in Table 3
T2 construct: made in house; host or cells: Escherichia coli BL21 (DE3)

CC1(C)S[C@@H]2[C@H](NC(=O)[C@H](N)c3ccc(O)cc3)C(=O)N2[C@H]1C(=O)O [Amoxicillin, amoxicillin]
Ratio of fCss,avg to Ki,app, PBP B [1]: 2 | Ratio of fCss,avg to Ki,app, LDT5 [2]: 1.2 | Observed MW (+ change in mw), DDC (26,788) [3]: 27,156 (+366) Da | Ratio of fCss,avg to Ki,app, DDC [4]: 150 | Ratio of fCss,avg to Ki,app, PBP-lipo [5]: 60
